Measured affinities in a library of Ab-14 heavy chain variants

Data: MIT Lincoln Laboratory AlphaSeq set, Li et al. 2023, doi:10.1038/s41467-023-39022-2, as distributed in FLAb.

The target is the same throughout: PDVDLGDISGINAS, from the HR2 region of SARS-CoV-2 spike.

Ab-14 is the parent antibody, in scFv form: VH, then the linker GGGGSGGGGSGGGGS, then VL. The light chain is unchanged in all variants.
VH: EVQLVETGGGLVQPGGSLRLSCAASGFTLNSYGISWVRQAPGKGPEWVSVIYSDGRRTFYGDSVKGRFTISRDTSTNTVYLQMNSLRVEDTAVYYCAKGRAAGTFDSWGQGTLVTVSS
VL: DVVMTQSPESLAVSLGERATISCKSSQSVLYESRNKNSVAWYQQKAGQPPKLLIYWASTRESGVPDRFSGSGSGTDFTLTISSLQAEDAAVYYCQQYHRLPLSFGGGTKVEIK

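These sequences belong to a second round, designed from the earlier measurements on random variants of the parent. Several design methods are mixed in this list. The scFvs were displayed on barcoded MATa yeast, the peptide on MATalpha yeast. Pairs that bind mate more often; barcode pairs of the diploids are counted by sequencing. Each replicate has its own calibration line, from reference interactions of the BCL2 family. Each pool was mated in six replicate cultures.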

Changes read parent residue, position, new residue, counted from the first residue of the VH shown.
Variants here have at most six changes.
The Kd shown is the geometric mean over detected replicates; a lower Kd is a better binder.
Where no diploid with the target was found in any replicate, the entry reads "no signal": below detection, most likely a poor binder, though not proof of it.

Variant L29D I34V I51M S53A gave 860 nM (5 of 6 replicates).
Variant T28H G61Q R100Q A101T gave 5.2 nM (6 of 6 replicates).
Variant S53F R56K T104I D106F gave no signal (0 of 6 replicates).
Variant S31E G61K S107T gave 5.0 nM (6 of 6 replicates).
Variant T28D G61A S63R R100Q A101T gave 2.5 nM (6 of 6 replicates).
Variant T28D G61A R100Q S107A gave 5.1 nM (6 of 6 replicates).
Variant T28D G61V A101Y gave 3.6 nM (6 of 6 replicates).
Variant T28N A101Q T104R S107L gave no signal (0 of 6 replicates).
Variant T28N R100S gave 5.9 nM (12 of 12 replicates).
Variant T28S S31E G61A A101M gave no signal (0 of 6 replicates).
Variant G61R S107L gave no signal (0 of 6 replicates).
Variant T28D R56K R100Q A101T gave 5.6 nM (6 of 6 replicates).
Variant T28D S31E S53A G61A D62N R100E gave 300 pM (6 of 6 replicates).
Variant T28E S31D F59I G61I gave no signal (0 of 6 replicates).
Variant N30G G61I R100N gave no signal (0 of 6 replicates).
Variant N30Q G61Q gave no signal (0 of 6 replicates).
Variant G26M T28N A101Q gave no signal (0 of 6 replicates).
Variant S31D R56K G61I A101T gave 160 nM (4 of 6 replicates).
Variant T28N R56K R100V gave 8.1 nM (6 of 6 replicates).
Variant N30D G61S A102G S107T gave 3.9 nM (6 of 6 replicates).
Variant S53N F105N D106K gave no signal (0 of 6 replicates).
Variant T28Q S31E S63Q R100Q A101T S107E gave 4.7 nM (6 of 6 replicates).
Variant F27L gave 330 nM (3 of 6 replicates).
Variant G61R S63D R100Q A101T S107L gave no signal (0 of 6 replicates).
Variant T28D R56Q G61V A101Q gave 2.2 nM (6 of 6 replicates).
Variant T28D N30S T58C T104W D106N gave no signal (0 of 6 replicates).
Variant T28D S63R R100K A101Q gave 5.5 nM (6 of 6 replicates).
Variant T28S S53A R100Q S107T gave 670 pM (6 of 6 replicates).
Variant T28E G61A R100Q S107K gave 2.1 nM (6 of 6 replicates).
Variant R56M A101K T104M S107Q gave no signal (0 of 6 replicates).
Variant T28E S53A A101T gave 5.3 nM (6 of 6 replicates).
Variant T28S S31D G61T D106I gave 38 nM (2 of 6 replicates).
Variant T28D S31E S53A G61S R100E A101N gave 310 pM (6 of 6 replicates).
Variant T28S R100V A101I gave 940 pM (6 of 6 replicates).
Variant T28E R56M G61A A101T gave 1.8 nM (6 of 6 replicates).
Variant T28S G61A R100Q S107N gave 4.7 nM (4 of 6 replicates).
Variant F59A Y60M A102R gave 75 nM (1 of 6 replicates).
Variant S35T A101V gave no signal (0 of 6 replicates).
Variant S35A G61S gave no signal (0 of 6 replicates).
Variant F27E S31Q S35W G61S V64Q T104F gave 45 nM (1 of 6 replicates).
Variant R56M G61A A101T gave 2.4 nM (6 of 6 replicates).
Variant T28Q G61N G99T D106E gave no signal (0 of 6 replicates).
Variant T28S S31E R100E S107R gave 2.0 nM (6 of 6 replicates).
Variant F27E S63A gave 34 nM (5 of 6 replicates).

4 of these entries, quoted again:

changes,Kd,detected
T28D S63R R100K A101Q,5.5 nM,6/6
T28N A101Q T104R S107L,no signal,0/6
R56M G61A A101T,2.4 nM,6/6
T28H G61Q R100Q A101T,5.2 nM,6/6

In the paper, a design with two or fewer of six values counts as a poor binder.
Three control strains display no target. For all heavy chain designs, 1% of the pairings with them gave a signal, with a median of 120 nM and one signal in twenty below 7.0 nM, so weak values seen in few replicates may be background.
Some sequences occur more than once in the pool; their replicates are pooled.
The range of this assay differs from that of the first round, and the authors advise against merging the two.